The results in this text go back to patent publication US12378211B2, “Carbonic anhydrase inhibitors and antibiotics against multidrug resistant bacteria” (Purdue Research Foundation, priority 2018, dated 2025).

In general, MIC refers to the least concentration at which growth counts as inhibited.

Converted amounts (≈) assume the structure as drawn.

The subject of data set [1] is fibroblast-like monkey kidney cell line (VERO cell). Nature of the data set: In vitro cytotoxicity, MTS assay, VERO cells. The conditions noted are these: at concentration up to 128 μg/mL; tested at 64 and 128 μg/mL; two hours. It is filed as cell-based. For orientation: Tetrazolium dyes change colour on reduction, which living cells bring about.
For data set [2], the system named is Wild-type E. fecalis (NR 31975). The data set is described as follows: MIC against wild-type strain (mutant study). The class given is cell-based, Enterococcus fecalis. The conditions noted are these: Enterococcus.

`CCCC(=O)Nc1nnc(S(N)(=O)=O)s1` [CAI0013, N-(5-Sulfamoyl-1,3,4-thiadiazol-2-yl) butyramide]: the “toxicity to VERO cells (percent viable cells relative to DMSO)” value in data set [1] is “non-toxic”. In addition, in data set [2], the MIC is 2 µg/mL (≈ 7.99 µM).
